Data reported in ChEMBL document CHEMBL4699543, “Preparation and evaluation of soluble epoxide hydrolase inhibitors with improved physical properties and potencies for treating diabetic neuropathic pain” (Bioorg Med Chem, 2020).

Experiment: Lipophilicity, logP of compound at 100 uM incubated for 90 mins by HPLC analysis
Assay type: physicochemical

| Structure (SMILES) | logP at […], 100 µM |
| --- | --- |
| Cc1occc1C(=O)N1CCC(NC(=O)Nc2ccc(C(F)(F)F)cc2)CC1 | 4.19 |
| O=C(Nc1ccc(OC(F)(F)F)cc1)NC1CCN(C(=O)c2cc[nH]c2)CC1 | 3.34 |
| O=C(Nc1ccc(OC(F)(F)F)cc1)NC1CCN(C(=O)c2ccoc2)CC1 | 3.63 |
| O=C(Nc1ccc(OC(F)(F)F)cc1)NC1CCN(C(=O)C2=COCC2)CC1 | 3.49 |
| O=C(Nc1ccc(C(F)(F)F)cc1)NC1CCN(C(=O)c2ccoc2)CC1 | 3.5 |
| Cc1ccoc1C(=O)N1CCC(NC(=O)Nc2ccc(OC(F)(F)F)cc2)CC1 | 4.48 |
| O=C(Nc1ccc(OC(F)(F)F)c(F)c1)NC1CCN(C(=O)C2CCCOC2)CC1 (centres undefined) | 4.09 |
| O=C(Nc1ccc(C(F)(F)F)cc1)NC1CCN(C(=O)C2CCOCC2)CC1 | 3.16 |
| O=C(Nc1ccc(OC(F)(F)F)cc1)NC1CCN(C(=O)C2CCCOC2)CC1 (racemic) | 3.42 |
